Data reported in patent publication US12226401B2, “Molecular genetic approach to treatment and diagnosis of alcohol and drug dependence” (priority 2010, dated 2025).

Tested on: alcohol dependent individuals
Experiment: GMDR epistatic analysis of multigene SNP combinations (SERT, 5HT-3A, 5HT-3B) for association with ondansetron treatment outcome
Design: species or system human
[1] = 5-HTTLPR + rs1042173: all other genotype combinations
[2] = rs3758987 + 5-HTTLPR + rs1042173: TT/CT + LL + TT
[3] = rs3758987 + 5-HTTLPR + rs1042173: all other genotype combinations
[4] = rs3758987 + 5HTTLPR: TT/CT + LL
[5] = rs3758987 + 5HTTLPR: all other genotype combinations
[6] = rs3758987 + rs1042173: TT/CT + TT
[7] = rs3758987 + rs1042173: all other genotype combinations
[8] = rs3758987 + rs2276307 + 5-HTTLPR + rs1042173: TT/CT + AA + LL + TT
[9] = rs3758987 + rs2276307 + 5-HTTLPR + rs1042173: all other genotype combinations
[10] = rs3758987 + rs2276307 + 5-HTTLPR: TT/CT + AA + LL
[11] = rs3758987 + rs2276307 + 5-HTTLPR: all other genotype combinations

Cc1nccn1CC1CCc2c(c3ccccc3n2C)C1=O (stereo not drawn) [ondansetron, 9-methyl-3-[(2-methyl-1H-imidazol-1-yl)methyl]-1,2,3,9-tetrahydrocarbazol-4-one]
OND-non-responders N (More than 3 standard drinks improvement from the baseline in the last 2 months) (5-HTTLPR + rs1042173: LL + TT): 4 | OND-responders N (More than 3 standard drinks improvement from the baseline in the last 2 months) (5-HTTLPR + rs1042173: LL + TT): 16 | OND-non-responders N (More than 3 standard drinks improvement from the baseline in the last 2 months) [1]: 64 | OND-responders N (More than 3 standard drinks improvement from the baseline in the last 2 months) [1]: 41 | OND-non-responders N (More than 3 standard drinks improvement from the baseline in the last 2 months) [2]: 4 | OND-responders N (More than 3 standard drinks improvement from the baseline in the last 2 months) [2]: 15 | OND-non-responders N (More than 3 standard drinks improvement from the baseline in the last 2 months) [3]: 64 | OND-responders N (More than 3 standard drinks improvement from the baseline in the last 2 months) [3]: 42 | OND-non-responders N (More than 3 standard drinks improvement from the baseline in the last 2 months) [4]: 16 | OND-responders N (More than 3 standard drinks improvement from the baseline in the last 2 months) [4]: 23 | OND-non-responders N (More than 3 standard drinks improvement from the baseline in the last 2 months) [5]: 52 | OND-responders N (More than 3 standard drinks improvement from the baseline in the last 2 months) [5]: 34 | OND-non-responders N (More than 3 standard drinks improvement from the baseline in the last 2 months) [6]: 14 | OND-responders N (More than 3 standard drinks improvement from the baseline in the last 2 months) [6]: 22 | OND-non-responders N (More than 3 standard drinks improvement from the baseline in the last 2 months) [7]: 54 | OND-responders N (More than 3 standard drinks improvement from the baseline in the last 2 months) [7]: 35 | OND-non-responders N (More than 3 standard drinks improvement from the baseline in the last 2 months) [8]: 2 | OND-responders N (More than 3 standard drinks improvement from the baseline in the last 2 months) [8]: 13 | OND-non-responders N (More than 3 standard drinks improvement from the baseline in the last 2 months) [9]: 66 | OND-responders N (More than 3 standard drinks improvement from the baseline in the last 2 months) [9]: 44 | OND-non-responders N (More than 3 standard drinks improvement from the baseline in the last 2 months) [10]: 12 | OND-responders N (More than 3 standard drinks improvement from the baseline in the last 2 months) [10]: 20 | OND-non-responders N (More than 3 standard drinks improvement from the baseline in the last 2 months) [11]: 56 | OND-responders N (More than 3 standard drinks improvement from the baseline in the last 2 months) [11]: 37
